# Ab-14 heavy chain CDR variants: yeast mating affinities

Antigen: PDVDLGDISGINAS, a 14-residue peptide of the SARS-CoV-2 spike HR2 region.

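The starting antibody came from a phage panning campaign against this peptide. Variants in AAYL49 differ from the parent at up to three CDR positions; double and triple changes were sampled at random. AlphaSeq pools MATa yeast showing the antibodies with MATalpha yeast showing the peptide. The frequency of each diploid, read from paired DNA barcodes, reflects how well the two displayed proteins bind. Read counts were normalised to the haploid input and turned into Kd by a linear fit to BCL2-family pairs of known affinity, for each replicate. The assay was run in three technical replicates.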

Parent: Ab-14, a human scFv built as VH, three GGGGS repeats, VL. Only the CDRs of the heavy chain vary.
VH: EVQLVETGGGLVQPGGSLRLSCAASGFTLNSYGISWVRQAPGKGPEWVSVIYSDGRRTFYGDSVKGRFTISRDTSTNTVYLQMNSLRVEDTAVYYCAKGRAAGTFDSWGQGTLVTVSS
VL: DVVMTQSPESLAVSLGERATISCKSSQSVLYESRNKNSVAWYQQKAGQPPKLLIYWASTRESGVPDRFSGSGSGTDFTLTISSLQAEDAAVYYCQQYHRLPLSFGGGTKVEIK

Each variant is given by its three heavy chain CDRs, as the data file delimits them; those of the parent are GFTLNSYGIS, VIYSDGRRTFYGDSVK, GRAAGTFDS. Affinities are written as log10 Kd with Kd in nM; a lower number is a better binder. A mean of the replicates is given; it leaves out those without a signal. Where no diploid with the target was found in that replicate, the entry reads "nd": below detection, most likely a poor binder, though not proof of it. Nonspecific signal, from three strains lacking the peptide, appeared in 15% of pairings of library AAYL49, centred on 4.06 (5% of these signals below 2.83); values are not corrected for it. For each scFv, signals with the empty controls are counted beside the result, with their mean in brackets. In this assay the parent's reference entry averaged 0.65; its copy inside this library read 4.11 (one replicate of three).

CDR-H1,CDR-H2,CDR-H3,"log10 Kd, replicates","log10 Kd (nM), mean",control signals
MFTLNSYGIS,VIYSRGRRTFYGDWVK,GRAAGTFDS,nd nd nd,nd,0 of 9
GFTLNSYGII,VIYCDGRRTFYGDSVK,GRAAGTSDS,nd nd nd,nd,0 of 9
GFPLNSYGIS,VIYSDGRRTFYGDSVK,MRAAGTFDN,nd 4.76 3.31,4.04,0 of 9
GFTLTSYGIS,VPYSDGRRTFYGDSVK,GRANGTFDS,nd nd nd,nd,0 of 9
GFTLNSYGIS,VIYSDGRITFYGDSVK,GRTAGTFDS,nd nd nd,nd,0 of 9
GFTLNSYPIS,VIYSDGRRTFYGDSKK,GLAAGTFDS,nd 3.30 nd,3.30,3 of 9 (3.77)
GATLLSYGIS,VIYSDGRRTFRGDSVK,GRAAGTFDS,nd 2.68 nd,2.68,0 of 9
GFTLNSYGIS,VIKSDGRRTFYGDSVK,GRCAGTFDS,3.31 nd nd,3.31,3 of 9 (3.14)
GFTLNSYGGS,VIYSDGRRTFYGDSVK,GRAWGTFYS,nd nd nd,nd,1 of 9 (3.37)
GFTLNSYGSS,VIYSDGRRTFYGDSVQ,GRAANTFDS,3.86 3.89 nd,3.88,4 of 9 (3.90)
VFTLNSYGIS,VLYSDGRRTCYGDSVK,GRAAGTFDS,nd nd nd,nd,0 of 9
GFTLNSYGIS,VIYSLWRRTFYGDSVK,GRAAGTFDS,5.70 nd 3.70,4.70,2 of 9 (4.23)
GFHKNSYGIS,VIYSDGHRTFYGDSVK,GRAAGTFDS,nd nd nd,nd,0 of 9
GFTFNSYGIV,VIYNDGRRTFYGDSVK,GRAAGTFDS,nd nd nd,nd,3 of 9 (3.93)
GHPLNSYGIS,VPYSDGRRTFYGDSVK,GRAAGTFDS,4.31 nd nd,4.31,1 of 9 (3.64)
GFTLNSYIMS,VIYSDGRRTFYGDSVK,GQAAGTFDS,4.08 nd nd,4.08,1 of 9 (3.34)
GFTLNNYGIS,VIYSDGRRTFIGDSVK,CRAAGTFDS,nd nd nd,nd,3 of 9 (4.22)
GFTLNSYGIS,VIYSDGRRTFYGDSVK,WRMAGTFDS,nd nd nd,nd,0 of 9
GGTLNSYGIS,VIYSDERRTFYGDSVK,GRAAGVFDS,nd nd nd,nd,0 of 9
GFTLNSYGIS,VIYSFGRRTFNGDSVK,YRAAGTFDS,nd nd nd,nd,0 of 9
GFTLNFYGIE,VIYSDGRRTFYGDSVK,GRAAHTFDS,nd nd nd,nd,0 of 9
GFTLNSYGIS,VIYSDGRHTRYGDSVK,GRAAGTKDS,3.21 3.14 3.36,3.24,1 of 9 (2.78)
GFTLNYYGIS,VINSDGRRTFYGDFVK,GRAAGTFDS,nd nd nd,nd,0 of 9
GFTLNSYRIS,VIYSDGRRTFYGDSRK,GRAAGTFDK,nd nd nd,nd,0 of 9
GFTLNSYNIS,VIYSDPRRTFYGDSVK,GRAAGTNDS,6.37 3.98 nd,5.17,4 of 9 (4.36)
GFTLNSAGIH,VIYSDGRMTFYGDSVK,GRAAGTFDS,nd nd nd,nd,1 of 9 (2.69)
GEMLNSYGIS,VIYSDGRRTFYGDSVK,GRAAGTFES,0.23 0.49 0.40,0.37,2 of 9 (5.08)
GFTLNEYGIS,VIYSDGRRTFYGDSVK,GCAAGTPDS,nd 4.65 nd,4.65,0 of 9
GFNLNSYGIS,VIYSDLRRTFYGDSVK,GRAAGTFDH,4.66 4.55 5.06,4.76,5 of 9 (4.78)
GFTLNSYGIQ,VIYSDGRRTFYGDSVK,GRAAGSFDS,nd 2.99 3.58,3.29,0 of 9
GFTLNSYGIS,VIYSDGRRTFYGDSPK,GRIAGTFMS,nd nd nd,nd,0 of 9
AFTLNSYGIS,VIYSRGRRTFYGDSSK,GRAAGTFDS,nd nd nd,nd,0 of 9
GFTLMSYGIS,VIYSDGRRIFYGDSVK,GRAAGTNDS,nd nd nd,nd,1 of 9 (4.18)
GFTLNSYGIS,VIYSDKFRTFYGDSVE,GRAAGTFDS,nd 4.22 5.14,4.68,5 of 9 (4.46)
GFTLNSYGIS,VTYSDGRRTFYGDSVK,GSAAGTHDS,2.30 2.79 2.72,2.61,7 of 9 (4.03)
GFGLNSYGIS,VIYSDGRRTFYGDSVM,TRAAGTFDS,nd nd nd,nd,1 of 9 (5.39)
WFTLNKYGIS,VIYSDGRHTFYGDSVK,GRAAGTFDS,3.59 nd nd,3.59,0 of 9
GFTLNSYGIS,VIYSDGFRGFYGDSVK,GRAAGTFIS,nd nd nd,nd,1 of 9 (3.52)
FFTLNSYGIS,VIYSDGRRTFYGDSVK,GRAGGTFDS,nd nd nd,nd,2 of 9 (3.26)
GFTLNSYGIS,VIYSDGRRTFYGPSVK,GRAAGEYDS,nd nd nd,nd,2 of 9 (4.30)
GFTLNSYGIS,VIYEDGRRTFYGDSVK,GTAAFTFDS,nd nd nd,nd,1 of 9 (2.88)
GFTLGSYGIS,VIYSDGRRTFYGWSVK,GRAAGYFDS,nd nd 5.49,5.49,2 of 9 (3.93)
GFTLNSFGIS,VIYSDGRRTFYGDSVK,GRFAGTFQS,nd 4.64 nd,4.64,0 of 9
GFTLNSYGIP,VIYCDGRRTFGGDSVK,GRAAGTFDS,nd 4.88 nd,4.88,1 of 9 (5.40)
GFTLNSYGIS,VIYSDSRRTFYGDSAK,GRATGTFDS,5.44 nd 4.27,4.86,1 of 9 (3.18)
GFGLNSYGIS,VIYSDGSRTDYGDSVK,GRAAGTFDS,nd nd 3.07,3.07,2 of 9 (4.09)

A selection of 5 entries from above:

CDR-H1,CDR-H2,CDR-H3,"log10 Kd, replicates","log10 Kd (nM), mean",control signals
GFGLNSYGIS,VIYSDGSRTDYGDSVK,GRAAGTFDS,nd nd 3.07,3.07,2 of 9 (4.09)
GFHKNSYGIS,VIYSDGHRTFYGDSVK,GRAAGTFDS,nd nd nd,nd,0 of 9
GHPLNSYGIS,VPYSDGRRTFYGDSVK,GRAAGTFDS,4.31 nd nd,4.31,1 of 9 (3.64)
GFGLNSYGIS,VIYSDGRRTFYGDSVM,TRAAGTFDS,nd nd nd,nd,1 of 9 (5.39)
GFTLNYYGIS,VINSDGRRTFYGDFVK,GRAAGTFDS,nd nd nd,nd,0 of 9

The measurements come from Engelhart et al. 2022 (doi:10.1038/s41597-022-01779-4) through the FLAb antibody collection.